## Antibody variant affinities, Ab-14 light chain, assay B

Values reported by Li et al. 2023, doi:10.1038/s41467-023-39022-2 (FLAb copy).

The target is the same throughout: PDVDLGDISGINAS, from the HR2 region of SARS-CoV-2 spike.

Parent: Ab-14, a human scFv built as VH, the linker GGGGSGGGGSGGGGS, VL. Only the CDRs of the light chain vary.
VH: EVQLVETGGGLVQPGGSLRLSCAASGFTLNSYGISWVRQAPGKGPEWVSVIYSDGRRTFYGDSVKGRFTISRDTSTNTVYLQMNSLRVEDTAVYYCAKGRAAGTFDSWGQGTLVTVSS
VL: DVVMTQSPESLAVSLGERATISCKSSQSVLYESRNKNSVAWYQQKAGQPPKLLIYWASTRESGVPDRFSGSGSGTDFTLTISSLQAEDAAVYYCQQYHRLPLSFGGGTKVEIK

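Phage display of a naive human antibody library on the peptide gave the parent. The variants were designed computationally from a first round of random CDR variants and then made and measured. Group labels follow the data file (Ctrl: baseline library sampled from a position-specific scoring matrix, with some repeated check sequences; GP: Gaussian process model; HC: hill climbing; Gen: genetic algorithm; Gibbs: Gibbs sampling; a sequence that several methods proposed may carry one label only). Affinity was read by AlphaSeq, a pooled yeast mating assay with surface-displayed partners. After mating in shaken culture at 30 °C for 16 h, diploids were selected and their barcode pairs sequenced. Scores were corrected for input abundance and mapped to Kd with protein pairs of known affinity run in the same pool. Each pool was mated in six replicate cultures.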

Each variant is given by its three light chain CDRs, as the data file delimits them; those of the parent are KSSQSVLYESRNKNSVA, WASTRES, QQYHRLPLS. This list holds designs with at most six substitutions. Values are apparent Kd, the geometric mean of the replicates that gave a signal; lower means stronger binding. An entry "no signal" has no value in the source: the pair was not observed among the diploids in any replicate. This suggests poor binding but is not conclusive.

- KQSQSVLYESRNKNSVA | DASTRYS | QQYHRLPLS [GP_HC]: 160 pM (6 of 6 replicates)
- KLSQSWLYESRNKNSVA | GASTRED | QQYHRLPLS [GP_Gen]: 490 pM (6 of 6 replicates)
- KSSMSVLYESGNKNSVA | WASLRES | QQYHRLPLS [Ctrl]: 51 nM (2 of 6 replicates)
- KCSQSVLYHSRNKNSVA | GASTRES | QQYHHLPLS [Ctrl]: 7.3 nM (6 of 6 replicates)
- KSSQSVLAESVNKNSVA | WASTRES | QQYHRLHLS [Ctrl]: no signal (0 of 6 replicates)
- KVSQSNLYESRNKNAVA | NASTRES | QQYHRLPLS [GP_Gen]: 500 pM (6 of 6 replicates)
- KSSWSVLYESRNKNNVA | DASTRES | QQYHRLPLS [GP_HC]: 1.5 nM (6 of 6 replicates)
- KLSQSVLYESRNSNSVA | NGSTRES | QQYHRLPLS [GP_Gen]: 210 pM (6 of 6 replicates)
- HVSQSVLTETSNKNSVA | WASTRES | QQYHDLPLS [Ctrl]: 250 nM (2 of 6 replicates)
- KSSQSVLYESRNKNSVA | WLSQRES | QQYHRLPLW [Ctrl]: no signal (0 of 6 replicates)
- KLSQSTLYDSYNKNSVA | WASTRES | QQYHRLPLS [GP_HC]: 210 nM (2 of 6 replicates)
- KFSQKVLYEHRCKNSVA | NASTRES | QQYHRLPLS [GP_HC]: 17 nM (6 of 6 replicates)
- KSDQSVLYESRNKNSVA | WASTRES | CQYHRLPLS [Ctrl]: 210 nM (2 of 6 replicates)
- KSSTSWLYTSRNKNSVA | WASTRES | NQYHRLPLS [Ctrl]: no signal (0 of 6 replicates)
- KSSYSVLQESRNKNDVA | WASTRES | QQYHRLPLS [Ctrl]: no signal (0 of 6 replicates)
- KQSQSVLYESVNKNSVA | DASTRQS | QQYHRLPLS [GP_HC]: 790 pM (6 of 6 replicates)
- KLSESVLYESRNKNSVA | HASTRES | QQYHRLPLS [GP_Gen]: 1.3 nM (6 of 6 replicates)
- KSSQSVLYESRNHNSVA | QASTRSS | QQYHRLPLS [Ctrl]: 7.9 nM (6 of 6 replicates)
- KVQQSVLYQSRNKNSVA | NASTRES | QQYHRLPLS [GP_Gen]: 650 pM (6 of 6 replicates)
- KLSQSTLYESRNQNSVA | NASTRES | QQYHRLPLS [GP_HC]: 470 pM (6 of 6 replicates)
- KFLQSVLYESRDKNSVA | HASTRED | QQYHRLPLS [GP_HC]: 830 pM (6 of 6 replicates)
- KLSQSVLYESRNSNSVA | NASTRMS | QQYHRLPLS [GP_Gen]: 800 pM (6 of 6 replicates)
- KLSQSWLYESRNWNNVA | NASTRES | QQYHRLPLS [GP_Gen]: 490 pM (6 of 6 replicates)
- KSSQLVLYESRNKNSVA | DASTREP | QQYHLLPLS [Ctrl]: 5.1 nM (6 of 6 replicates)
- KLPQSQLYESRNKNSVA | EASTRES | QQYHRLPLS [GP_Gen]: 990 pM (6 of 6 replicates)
- KCSQSVMYESRNKNSVA | KASTRES | QQYHRLPLF [Ctrl]: no signal (0 of 6 replicates)
- KMSQSWLYESRNKNSVA | GASSRES | QQYHRLPLS [GP_HC]: 610 pM (6 of 6 replicates)
- KLSMSDLYESRNGNSVA | MASTREK | QQYHRLPLS [GP_Gibbs]: 1.4 nM (6 of 6 replicates)
- KSSISVLYESRNPNSVA | WASTRES | QQYHRLPLS [Ctrl]: no signal (0 of 6 replicates)
- KSSQSQLYQSRDKNSVA | WASTRES | QQYHRLPLS [Ctrl]: 170 nM (3 of 6 replicates)
- KQSQSFLCESRNKNSVA | DASTRES | QQYHRLPLS [GP_HC]: 1.0 nM (6 of 6 replicates)
- KVSQSQDYESRNKNSVA | NASTRES | QQYHRLPLS [GP_Gen]: 690 pM (6 of 6 replicates)
- KSSQSVLYESRNKNSVA | WASTRED | QQAHRLPLS [Ctrl]: no signal (0 of 6 replicates)
- HLSQSMLYESRNKNSVA | NASQRES | QQYHRLPLS [GP_Gen]: 990 pM (6 of 6 replicates)
- KSSQSYLYENRNKNSVA | WASTRCS | QQYHRFPLS [Ctrl]: 84 nM (6 of 6 replicates)
- KLMQSVLYESRNKNSVA | EASQRES | QQYHRLPLS [GP_Gen]: 2.9 nM (6 of 6 replicates)
- KSSQSVTYESLNKNSVA | WASTRES | QQYHRLPLS [Ctrl]: no signal (0 of 6 replicates)
- HSSQSVPYESRNKNSVA | NASTREQ | QQYHRLPLS [GP_HC]: 1.6 nM (6 of 6 replicates)
- KLEQSMLYESRNKNSVA | NASQRES | QQYHRLPLS [GP_Gen]: 660 pM (6 of 6 replicates)
- KSSQSVLMECRNKNSVA | WASTRES | QQYHRLPLS [Ctrl]: 900 nM (3 of 6 replicates)
- KLSYSVLYESRNKNSVA | EASTRES | QYYHRLPLS [Ctrl]: 230 nM (4 of 6 replicates)
- KSPQSVLYESRNKNSVA | HASTRED | QLYHRLPLS [GP_HC]: 6.8 nM (6 of 6 replicates)
- KSSQSVRYESRNKNSVA | DASTRES | QQYHRLPLS [Ctrl]: 2.0 nM (6 of 6 replicates)
- KSSQSVLYESRNKNSVA | WASTRES | QQYSRLQCS [Ctrl]: no signal (0 of 6 replicates)
- KLMQSTLYESRNKNSVA | NASTRES | QQYHRLPLS [GP_Gen]: 890 pM (6 of 6 replicates)
- KSSGSVLYESRNKNNVA | MASTRES | QQYHRLPLS [Ctrl]: 19 nM (6 of 6 replicates)

Extract of 4 entries:

CDR-L1,CDR-L2,CDR-L3,group,Kd,replicates with signal
KSSQLVLYESRNKNSVA,DASTREP,QQYHLLPLS,Ctrl,5.1 nM,6/6
KSSQSVLYESRNKNSVA,WLSQRES,QQYHRLPLW,Ctrl,no signal,0/6
KSSGSVLYESRNKNNVA,MASTRES,QQYHRLPLS,Ctrl,19 nM,6/6
HSSQSVPYESRNKNSVA,NASTREQ,QQYHRLPLS,GP_HC,1.6 nM,6/6

As a blank, each scFv also met three strains without target: over all light chain designs, 4% of these pairings were detected, typically at 430 nM and seldom below 38 nM. Of ten entries with the parent sequence, four were seen in most replicates (averages 2.2 nM to 240 nM), three in one and three in none, so single entries are noisy. A sequence measured in both rounds can read differently, since the two assays cover different ranges. In the paper, a design with two or fewer of six values counts as a poor binder.